Reference: publication PMC9086916 (RSC Advances, 2018)

System: human liver microsomes
Type: in vitro ADME
Settings: trantinterol 50.0 μM, HLM 0.5 mg/mL, inhibitor at 1 to 10-fold of reported Ki

C=C[C@H]1C[N@@]2CC[C@H]1C[C@@H]2[C@@H](O)c1ccnc2ccc(OC)cc12 [quinidine]
Inhibition of the formation of M1: could only inhibit the formation of M1 | Inhibition of the formation of M2: no inhibition
